Test: Residual propylene hydroformylation activity after heat treatment, Ligand F catalyst (Table 1)
Experimental: A catalyst solution (100 milliliters) was generated in a six ounce Fisher Porter Bottle by dissolving 0.063 grams of rhodium dicarbonyl 2,4-pentanedionate, 0.8 grams of Ligand F, 20 grams of n-butyraldehyde, and 78.7 grams of tetraethylene glycol dimethyl ether, subsequently alternately evacuating and flushing with nitrogen; and finally adding 60 psi of CO:H2, and placing the bottles in a 100° C. oil bath for 1 hour.
After closing the reactor, the system was again purged with nitrogen and place in an oil bath heated to 100° C. The hydroformylation reaction in each experiment was conducted at a total gas pressure of 160 psig. […]
The same procedure as in Example 2 was followed with the exception that a slow stream of 1,2-propadiene was purged through the initially generated catalyst solution for 5 minutes. […] The resulting solution was heated at 125° C. as in Example 2, and 20 milliliters of the resulting solution was transferred to a glass reactor as in Example 2 and the activity determined.
The same procedure as in Example 3 was followed except 2 milliliters of 1,3-butadiene was added to the generated catalyst and stirred for 5 minutes. […] The resulting solution was heated at 125° C. as in Example 2, and 20 milliliters of the resulting solution was transferred to a glass reactor as in Example 2 and the activity determined. […]

C=CC=CC [Piperylene, 1,3-pentadiene]
% Activity: 88.1%
Final Rate: 1.92

From patent publication US6090987A, “Metal-ligand complex catalyzed processes” (Union Carbide Chemicals & Plastics Technology Corporation, priority 1998, dated 2000)
